# Reference: US11491146B2, “Therapeutic methods and combinations” (priority 2017, dated 2022)
# Key:
# VIM2 expressing E. coli = assay type: cell-based
# Description: (§1) The cells were cultured on 0.8 g/100 ml nutrient agar plate at pH 7.0 and 37° C. The bacterial growth medium was diluted in nutrient broth (NB) to a concentration absorbance of 1.5 at OD600 nm and incubated overnight in 10 ml capped culture tubes with shaking. An overnight culture of the bacterial strain was sub-cultured to an optical density of 0.06 at OD600 nm into the NB medium and was then seeded at max 200 μl into the wells of a 96 well microtiter plate. Samples were then incubated at 37° C. and shaken at 200 rpm for 18 h.
# VIM-2 = VIM-2 (Pseudomonas aeruginosa, UniProt Q9K2N0); assay: Dose response enzymatic inhibition assay and inhibition constant against VIM2; assay type: biochemical, P. aeruginosa
# Description: For our biochemical assay, the blavmugene, from a clinical strain of P. aeruginosa, was expressed using the pET24a (+) vector [20]. The pET24a-VIM-2 plasmid was transformed into competent BL21 (DE3) E. coli cells. The cells were plated onto an LB-agar plate with kanamycin (25 μg/mL) and incubated overnight at 37° C. A single colony was used to inoculate 50 mL of LB, containing 25 μg/mL kanamycin, and the culture was shaken overnight at 37° C. From the overnight culture, 10 mL were transferred to 4×1 L LB medium containing 25 μg/mL kanamycin. The cultures were grown at 37° C. until the optical density (OD600 nm) reached 0.6-0.8, at which point protein production was induced with IPTG (0.5 mM) and ZnC12 (100 μM). The temperature was reduced to 20° C., and the cells were shaken for an additional 18 h. The cultures were harvested by centrifugation (8K×g) for 10 min at 4° C. […] The sample was loaded onto the column, and proteins were eluted with a linear gradient 0-500 mM NaCl with buffer B. Fractions containing VIM2, determined by SDS-PAGE, were pooled and concentrated to 2-3 mL in an Amicon ultraconcentrator equipped YM-10 membrane. […]
# The relative change in absorbance was evaluated as percentage inhibition and the IC50 was determined by fitting the data to a sigmoidal dose-response curve. […]
# E. coli = assay: Cell viability assay, wild type E. coli growth; assay type: cell-based
# Description: as §1
smiles,measurement,setting,value
"On1ccccc1=S [Compound 2b, 1-Hydroxypyridine-2-thione]",relative percentage growth compared to untreated cells,"VIM2 expressing E. coli; Amox(+), 50 μM amoxicillin",2.1%
same,relative percentage growth compared to untreated cells,VIM2 expressing E. coli; Amox(−),11%
same,fold loss of Ki relative to compound 3,VIM-2,20 fold
same,Ligand efficiency (LE),"VIM-2; LE = −1.38 log (Ki)/N, N = number of heavy atoms",1.15
same,relative percentage growth compared to untreated cells,"E. coli; Amox(+), 50 μM amoxicillin",1.9%
same,relative percentage growth compared to untreated cells,E. coli; Amox(−),5.3%

# Read-outs that look alike come from different tables or passages of the source.
